The entries are a selection whose mix differs from that of the whole data set. Activity calls are given as the source filed them. Rule as the data show it: active = activation above about 40%; inconclusive = between about 15% and that limit; inactive = weaker than that.
biological target: D(2) dopamine receptor (Homo sapiens) (UniProt P14416); assay: Beta-Arrestin HTS for Positive Allosteric Modulators of the Human D2 Dopamine Receptor: Agonists; conditions: DiscoveRx PathHunter D2 beta-arrestin, luminescence, 90 min; active compounds read high; 100% = 57 uM dopamine signal
Excerpt: There is great interest in identifying small molecule ligands for G-protein coupled receptors (GPCRs) as nearly 50% of all FDA-approved drugs target these important receptor proteins. […] Amongst the dopamine receptors (DARs), the D2 is arguably one of the most validated drug targets in neurology and psychiatry. For instance, all receptor-based antiparkinsonian drugs primarily work via stimulating the D2 DAR, whereas all FDA-approved antipsychotic agents are antagonists of this receptor. The D2 DAR is also therapeutically targeted in other disorders such as restless legs syndrome, tardive dyskinesia, Tourette's syndrome, and hyperprolactinemia.
To this end, a miniaturized qHTS screen was developed to be screened against the Molecular Libraries Small Molecule Repository (MLSMR). This assay seeks to identify agonists against the D2 DAR.
NIH Molecular Libraries Probe Production Network [MLPCN]
NIH Chemical Genomics Center [NCGC]
PI Name: David Sibley, National Institutes of Neurological Disorders and Stroke
DiscoveRx D2 cells were thawed from frozen stock and seeded at 2,100 cells/ 3 uL/well media (DiscoveRx Plating Reagent 2) with MultiDrop Combi dispenser (Thermo Scientific, Logan, UT) onto white tissue culture treated 1536-well Aurora plates (Brooks Automation, Chelmsford, MA) and allowed to attach overnight at 37 deg C, 5% CO2. Next, 23 nL/well of compound solutions in DMSO were added with a pintool transfer (Kalypsis, San Diego, CA). As the positive control, 1 uL/well dopamine (EC100, 57 uM final concentration) diluted in buffer (HBSS + 10 mM HEPES + SMB + 0.1% Tween-20) was dispensed to 1 column of each plate. The rest of the plate was dispensed with buffer only, 1 uL/well as well. The cells were stimulated by compounds or dopamine control for 90 minutes at 37 deg C, 5% CO2, after which 1.5 ul/well of DiscoveRx detection reagent was added with BioRAPTR FRD dispenser. The detection reagent was prepared by mixing of Galacton Star Substrate, Emerald II solution and PathHunter buffer (supplied by the assay kit) together at 1:5:19 proportion accordingly just prior to dispensing. The plates were incubated at ambient temperature for 1 hour and then the luminescent signal was read on ViewLux plate reader (PerkinElmer, Waltham, MA).

Chains of the proteins cited; added tags and fusions are not shown.
UniProt P14416, whole entry: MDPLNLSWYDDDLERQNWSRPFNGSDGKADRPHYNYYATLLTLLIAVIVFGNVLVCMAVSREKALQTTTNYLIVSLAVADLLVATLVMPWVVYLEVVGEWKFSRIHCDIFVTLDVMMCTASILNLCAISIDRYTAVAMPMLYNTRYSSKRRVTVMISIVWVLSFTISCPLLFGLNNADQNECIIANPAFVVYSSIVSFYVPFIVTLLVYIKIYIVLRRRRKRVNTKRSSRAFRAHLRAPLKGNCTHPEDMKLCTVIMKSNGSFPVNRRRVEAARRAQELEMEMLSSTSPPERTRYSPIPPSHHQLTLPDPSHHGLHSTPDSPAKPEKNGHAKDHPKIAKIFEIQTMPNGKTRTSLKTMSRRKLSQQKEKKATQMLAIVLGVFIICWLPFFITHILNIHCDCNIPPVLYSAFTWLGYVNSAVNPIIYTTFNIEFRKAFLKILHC

Compound	activation
CN(C)C1(CNC(=O)c2cccc(C#N)c2)CCCCC1	inactive: -1.25%
O=c1[nH]c2ccccc2n1C1CCN(C(c2ccccc2)c2nnnn2C2CCCC2)CC1 (stereo unspecified)	inactive: -2.72%
CCCN1CCC(Nc2cc(OC)cc(OC)c2)CC1	inactive: 10.8%
Cc1cc(N(CCCl)CCCl)ccc1C=O	inactive: -1.33%
c1ccc(CN2CCC(Nc3ccccc3)CC2)cc1	inactive: -1.26%
CC(C)(C)n1nnnc1C(c1cccc2ccccc12)N1CCC(n2c(=O)[nH]c3ccccc32)CC1 (stereo unspecified)	inactive: 3.21%
N#Cc1ccc(C(=O)NCC2(N3CCCCC3)CCCCC2)cc1	inactive: -3.85%
CC(C)(C)OC(=O)N1CCC(N(C(=O)c2ccccc2)c2ccc(Cl)cc2)CC1	inactive: -2.41%
CCOC(=O)C(CC)C1=NC(C)(C)Cc2ccccc21.O=[N+]([O-])c1cc([N+](=O)[O-])c(O)c([N+](=O)[O-])c1 (stereo unspecified)	inactive: -4.53%
COc1cccc(C(c2nnnn2C(C)(C)C)N2CCC(n3c(=O)[nH]c4ccccc43)CC2)c1OC (stereo unspecified)	inactive: 6.65%
CCOC(=O)N1CCC(Nc2ccc(C)cc2)CC1	inactive: 8.14%
N/C(=N\O)c1c(N)no[n+]1[O-]	inactive: -2.84%
O=C(O)c1cccc(Nc2c([N+](=O)[O-])cc([N+](=O)[O-])cc2[N+](=O)[O-])c1	inactive: -11.4%
O=c1[nH]c2ccccc2n1C1CCN(C(c2cccs2)c2nnnn2C2CCCC2)CC1 (stereo unspecified)	inactive: 6.03%
O=C(OC1CN2CCC1CC2)C1c2ccccc2C=Cc2ccccc21 (stereo unspecified)	inactive: -5.21%
CCc1cc(C(=O)NCC2(N3CCCCC3)CCCCC2)sc1C	inactive: -2.13%
CCCCn1nnnc1C(c1cccc(OC)c1OC)N1CCC(n2c(=O)[nH]c3ccccc32)CC1 (stereo unspecified)	inactive: 14.1%
COc1cc(C(=O)NCC2(N3CCOCC3)CCCCC2)cc(OC)c1C	inactive: -0.192%
CCCCn1nnnc1C(c1ccccc1)N1CCC(n2c(=O)[nH]c3ccccc32)CC1 (stereo unspecified)	inactive: 13.4%
O=C(NCC1(N2CCOCC2)CCCCC1)c1cc(Br)ccc1Cl	inactive: 0.115%
O=c1[nH]c2ccccc2n1C1CCN(C(c2ccnc3ccccc23)c2nnnn2C2CCCC2)CC1 (stereo unspecified)	inactive: -4.3%
COc1ccc(C(=O)NCC2(N3CCOCC3)CCCCC2)cc1OC	inactive: -4.38%
COc1cccc(C(c2nnnn2C2CCCC2)N2CCC(n3c(=O)[nH]c4ccccc43)CC2)c1OC (stereo unspecified)	inactive: 4.14%

Compound	activation
COc1cc(OC)cc(C(=O)NCC2(N3CCOCC3)CCCCC2)c1	inactive: -2.92%
COc1cccc(C(=O)N(c2cc(C)cc(C)c2)C2CCN(C(=O)OC(C)(C)C)CC2)c1	inactive: -3.87%
CCC(CO)(C(=O)OC1CN2CCC1CC2)c1ccccc1 (stereo unspecified)	inactive: 2.75%
CN1CCC(Nc2ccc(Cl)cc2)CC1	inactive: -2.73%
CN1CCC(Nc2ccc(F)c(Cl)c2)CC1	inactive: -3.99%
CCOc1ncccc1C(=O)NCC1(N2CCOCC2)CCCCC1	inactive: -2.23%
O=C(O)C1(Nc2ccccc2)CCN(Cc2ccccc2)CC1	inactive: 0.819%
CC(C)(C)OC(=O)N1CCC(Nc2ccccc2)CC1	inactive: -3.29%
CCCOc1ccc(C(=O)NCC2(N(C)C)CCCCC2)cc1	inactive: -3.6%
O=c1[nH]c2ccccc2n1C1CCN(C(c2cc3ccccc3o2)c2nnnn2C2CCCC2)CC1 (stereo unspecified)	inactive: 5.8%
CC(C)(C)n1nnnc1C(c1ccnc2ccccc12)N1CCC(n2c(=O)[nH]c3ccccc32)CC1 (stereo unspecified)	inactive: 3.92%
COc1ccc(C(c2nnnn2C2CCCCC2)N2CCC(n3c(=O)[nH]c4ccccc43)CC2)cc1 (stereo unspecified)	inactive: 6.71%
CCN1CCC(Nc2cccc(F)c2)CC1	inactive: -3.36%
Cc1ccccc1NC1(C#N)CCN(Cc2ccccc2)CC1	inactive: -0.577%
Cn1c(=O)[nH]cc(N(CCCl)CCCl)c1=O	inactive: -1.66%
CN(C)c1ccc(C(=O)NCC2(N3CCCCC3)CCCCC2)cc1	inactive: -6.19%
O=C(NCC1(N2CCCCC2)CCCCC1)c1ccco1	inactive: 5.09%
CCC(c1nnnn1C1CCCCC1)N1CCC(n2c(=O)[nH]c3ccccc32)CC1 (stereo unspecified)	inactive: -3.14%
CC(=O)N(c1ccccc1)C1CCNCC1	inactive: -3.28%
O=c1[nH]c2ccccc2n1C1CCN(C(c2ccnc3ccccc23)c2nnnn2C2CCCCC2)CC1 (stereo unspecified)	inactive: 3.5%
COc1cc(OC)cc(C(=O)NCC2(N3CCCCC3)CCCCC2)c1	inactive: -3.27%
Cc1ccc(Nc2c([N+](=O)[O-])cc([N+](=O)[O-])cc2[N+](=O)[O-])cc1	inactive: 3.52%
Fc1ccccc1NC1CCN(Cc2ccccc2)CC1	inactive: 1.6%

— PubChem BioAssay AID624465 (National Center for Advancing Translational Sciences (NCATS), 2012)
